Results as given in ChEMBL document CHEMBL3627623, “Catecholic amides as potential selective phosphodiesterase 4D inhibitors: Design, synthesis, pharmacological evaluation and structure-activity relationships” (Bioorg Med Chem, 2015).

Amino acid sequences for entries named in this document (tags omitted). A change or cut given only in a name is not applied to a line headed by its entry.
UniProt Q9HCR9: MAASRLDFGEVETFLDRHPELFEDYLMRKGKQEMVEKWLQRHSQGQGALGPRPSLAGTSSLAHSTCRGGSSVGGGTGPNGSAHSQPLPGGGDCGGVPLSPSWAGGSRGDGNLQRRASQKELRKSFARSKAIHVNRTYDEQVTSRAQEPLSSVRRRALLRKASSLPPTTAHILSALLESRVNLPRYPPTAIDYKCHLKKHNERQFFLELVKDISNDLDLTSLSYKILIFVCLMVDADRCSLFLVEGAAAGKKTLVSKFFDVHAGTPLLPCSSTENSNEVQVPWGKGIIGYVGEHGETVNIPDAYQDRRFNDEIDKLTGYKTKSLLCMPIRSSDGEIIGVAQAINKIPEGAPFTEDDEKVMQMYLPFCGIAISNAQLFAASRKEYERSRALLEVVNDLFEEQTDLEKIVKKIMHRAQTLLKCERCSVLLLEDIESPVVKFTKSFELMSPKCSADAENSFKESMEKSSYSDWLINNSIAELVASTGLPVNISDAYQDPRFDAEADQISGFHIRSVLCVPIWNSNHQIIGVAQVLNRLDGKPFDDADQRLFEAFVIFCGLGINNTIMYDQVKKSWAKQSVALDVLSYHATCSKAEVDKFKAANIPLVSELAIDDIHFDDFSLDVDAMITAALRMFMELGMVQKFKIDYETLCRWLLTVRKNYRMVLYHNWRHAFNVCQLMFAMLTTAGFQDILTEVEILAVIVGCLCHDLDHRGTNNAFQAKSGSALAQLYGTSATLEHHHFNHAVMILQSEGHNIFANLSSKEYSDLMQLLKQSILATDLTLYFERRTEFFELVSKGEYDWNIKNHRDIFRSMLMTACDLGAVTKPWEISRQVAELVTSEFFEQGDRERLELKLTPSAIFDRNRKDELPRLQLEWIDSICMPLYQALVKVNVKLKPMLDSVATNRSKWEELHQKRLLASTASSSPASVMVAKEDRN
UniProt Q13370: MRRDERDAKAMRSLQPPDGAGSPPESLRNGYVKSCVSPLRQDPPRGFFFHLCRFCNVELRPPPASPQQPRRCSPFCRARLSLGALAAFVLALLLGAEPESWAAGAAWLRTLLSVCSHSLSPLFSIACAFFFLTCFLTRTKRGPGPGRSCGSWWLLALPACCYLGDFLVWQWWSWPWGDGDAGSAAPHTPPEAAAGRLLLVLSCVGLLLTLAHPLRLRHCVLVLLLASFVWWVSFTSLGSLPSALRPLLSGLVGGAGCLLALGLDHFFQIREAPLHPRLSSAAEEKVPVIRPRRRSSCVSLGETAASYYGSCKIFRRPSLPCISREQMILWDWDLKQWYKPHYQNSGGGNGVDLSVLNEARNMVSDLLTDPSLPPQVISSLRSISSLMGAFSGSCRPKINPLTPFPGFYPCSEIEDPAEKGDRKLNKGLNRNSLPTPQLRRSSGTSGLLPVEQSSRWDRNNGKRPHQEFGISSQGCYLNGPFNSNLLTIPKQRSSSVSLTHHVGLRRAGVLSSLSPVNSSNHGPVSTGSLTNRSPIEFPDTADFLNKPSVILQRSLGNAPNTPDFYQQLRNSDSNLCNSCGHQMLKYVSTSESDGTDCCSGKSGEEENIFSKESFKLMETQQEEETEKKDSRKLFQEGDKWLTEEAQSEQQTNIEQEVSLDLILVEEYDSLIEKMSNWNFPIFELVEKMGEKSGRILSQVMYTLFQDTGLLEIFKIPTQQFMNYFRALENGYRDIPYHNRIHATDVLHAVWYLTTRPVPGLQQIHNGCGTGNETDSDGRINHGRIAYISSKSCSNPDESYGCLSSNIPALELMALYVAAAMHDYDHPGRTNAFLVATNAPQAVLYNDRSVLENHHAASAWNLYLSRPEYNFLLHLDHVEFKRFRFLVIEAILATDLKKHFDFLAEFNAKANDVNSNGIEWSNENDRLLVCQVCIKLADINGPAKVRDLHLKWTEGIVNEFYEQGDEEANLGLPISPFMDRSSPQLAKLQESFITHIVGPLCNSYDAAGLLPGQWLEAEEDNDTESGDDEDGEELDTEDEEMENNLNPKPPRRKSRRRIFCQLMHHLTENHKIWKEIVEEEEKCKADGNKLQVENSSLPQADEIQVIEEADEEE
UniProt Q13946: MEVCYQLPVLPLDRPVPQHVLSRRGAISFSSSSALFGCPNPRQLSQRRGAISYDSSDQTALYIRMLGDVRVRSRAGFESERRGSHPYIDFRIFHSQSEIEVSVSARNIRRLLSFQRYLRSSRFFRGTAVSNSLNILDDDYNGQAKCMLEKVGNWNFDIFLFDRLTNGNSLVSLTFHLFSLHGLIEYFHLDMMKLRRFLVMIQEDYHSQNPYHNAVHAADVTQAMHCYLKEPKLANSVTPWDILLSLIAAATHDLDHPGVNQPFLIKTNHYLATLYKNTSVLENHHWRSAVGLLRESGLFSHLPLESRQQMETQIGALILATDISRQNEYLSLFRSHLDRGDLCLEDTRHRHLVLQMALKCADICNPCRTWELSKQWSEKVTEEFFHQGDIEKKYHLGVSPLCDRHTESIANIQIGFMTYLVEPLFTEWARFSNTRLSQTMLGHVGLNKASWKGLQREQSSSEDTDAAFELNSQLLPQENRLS

Columns and labels:
[1] = biological target: Dual 3',5'-cyclic-AMP and -GMP phosphodiesterase 11A (Homo sapiens, UniProt Q9HCR9); experiment: Inhibition of human PDE11A using AM-Cyclic-3',5'-AMP after 60 mins by fluorescence polarization assay
[2] = biological target: cGMP-inhibited 3',5'-cyclic phosphodiesterase 3B (Homo sapiens, UniProt Q13370); experiment: Inhibition of human PDE3B using AM-Cyclic-3',5'-AMP after 60 mins by fluorescence polarization assay
[3] = biological target: High affinity 3',5'-cyclic-AMP phosphodiesterase 7A (Homo sapiens, UniProt Q13946); experiment: Inhibition of human PDE7A using AM-Cyclic-3',5'-AMP after 60 mins by fluorescence polarization assay

Measured: IC50

COc1ccc(CNC(=O)c2ccc(OC(F)F)c(OC3CCCC3)c2)cc1
> 100 µM: all assays above
